Data from BindingDB's records for doi:10.1016/0006-3223(89)90217-5 (Stanford University, 1989).

Amino acid sequences for entries named in this document (tags omitted). A change or cut given only in a name is not applied to a line headed by its entry.
UniProt P28335: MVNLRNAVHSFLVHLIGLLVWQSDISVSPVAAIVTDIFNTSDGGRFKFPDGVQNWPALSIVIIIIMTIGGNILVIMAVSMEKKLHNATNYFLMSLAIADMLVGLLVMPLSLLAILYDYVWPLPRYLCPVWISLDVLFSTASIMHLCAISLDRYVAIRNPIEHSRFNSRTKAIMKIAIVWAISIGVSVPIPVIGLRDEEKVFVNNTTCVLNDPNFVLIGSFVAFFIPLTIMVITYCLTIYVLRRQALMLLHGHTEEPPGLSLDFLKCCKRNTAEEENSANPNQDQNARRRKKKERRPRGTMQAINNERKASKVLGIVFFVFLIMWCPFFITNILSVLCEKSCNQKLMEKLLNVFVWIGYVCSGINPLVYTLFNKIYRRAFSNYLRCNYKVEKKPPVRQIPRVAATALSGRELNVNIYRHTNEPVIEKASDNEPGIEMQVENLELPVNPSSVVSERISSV

Molecular target: 5-hydroxytryptamine receptor 2C (Homo sapiens, UniProt P28335)

SMILES: Clc1cccc(N2CCNCC2)c1 [mCPP]
- Ki: 360 nM
